pIC50: −log10 of the molar value.
Target: MELK (maternal embryonic leucine zipper kinase) (Homo sapiens, UniProt Q14680)
Assay: in vitro kinase assay with MELK protein (IC50); also […]-ATP kinase assay with recombinant MELK at […]
Type: biochemical

By UniProt entry, the sequences of proteins in these tests, tags left out. Where a name states a change or a piece, a line headed by the entry shows the natural chain unless it says otherwise.
UniProt Q14680: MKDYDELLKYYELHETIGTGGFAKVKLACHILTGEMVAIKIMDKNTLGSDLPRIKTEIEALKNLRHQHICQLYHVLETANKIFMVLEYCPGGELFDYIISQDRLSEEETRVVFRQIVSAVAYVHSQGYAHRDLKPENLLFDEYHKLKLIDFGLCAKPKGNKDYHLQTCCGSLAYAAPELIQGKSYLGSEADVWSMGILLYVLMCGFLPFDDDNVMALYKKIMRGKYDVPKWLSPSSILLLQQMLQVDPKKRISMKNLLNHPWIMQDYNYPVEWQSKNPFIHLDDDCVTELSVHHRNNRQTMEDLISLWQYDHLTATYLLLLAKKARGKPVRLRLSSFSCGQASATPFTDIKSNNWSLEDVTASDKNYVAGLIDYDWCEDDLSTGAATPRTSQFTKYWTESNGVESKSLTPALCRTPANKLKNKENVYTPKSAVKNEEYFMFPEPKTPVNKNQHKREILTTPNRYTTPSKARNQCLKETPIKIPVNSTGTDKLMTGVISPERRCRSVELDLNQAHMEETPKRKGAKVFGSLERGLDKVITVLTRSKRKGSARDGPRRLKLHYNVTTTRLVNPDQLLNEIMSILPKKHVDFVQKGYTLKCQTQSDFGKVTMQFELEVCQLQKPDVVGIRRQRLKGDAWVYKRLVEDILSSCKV

CC(=O)c1cnc2ccc(-c3cc(Cl)c(O)c(Cl)c3)nc2c1N[C@H]1CC[C@H](CN(C)C)CC1 [OTSSP167, 1-(6-(3,5-dichloro-4-hydroxyphenyl)-4-((trans-4-((dimethylamino)methyl)cyclohexyl)amino)-1,5-naphthyridin-3-yl)ethanone]
pIC50: 9.39
